Laboratory results as given in PubChem BioAssay AID619 (University of Pittsburgh Molecular Library Screening Center, 2007).
The entries are a selection whose mix differs from that of the whole data set. The source made the active and inactive calls.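 Rule for the calls: active = inhibition of 50% or more in the single-concentration screen; inactive = inhibition below 50%.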

By UniProt entry, the sequences of proteins in these tests, tags left out.
UniProt P53350, whole entry: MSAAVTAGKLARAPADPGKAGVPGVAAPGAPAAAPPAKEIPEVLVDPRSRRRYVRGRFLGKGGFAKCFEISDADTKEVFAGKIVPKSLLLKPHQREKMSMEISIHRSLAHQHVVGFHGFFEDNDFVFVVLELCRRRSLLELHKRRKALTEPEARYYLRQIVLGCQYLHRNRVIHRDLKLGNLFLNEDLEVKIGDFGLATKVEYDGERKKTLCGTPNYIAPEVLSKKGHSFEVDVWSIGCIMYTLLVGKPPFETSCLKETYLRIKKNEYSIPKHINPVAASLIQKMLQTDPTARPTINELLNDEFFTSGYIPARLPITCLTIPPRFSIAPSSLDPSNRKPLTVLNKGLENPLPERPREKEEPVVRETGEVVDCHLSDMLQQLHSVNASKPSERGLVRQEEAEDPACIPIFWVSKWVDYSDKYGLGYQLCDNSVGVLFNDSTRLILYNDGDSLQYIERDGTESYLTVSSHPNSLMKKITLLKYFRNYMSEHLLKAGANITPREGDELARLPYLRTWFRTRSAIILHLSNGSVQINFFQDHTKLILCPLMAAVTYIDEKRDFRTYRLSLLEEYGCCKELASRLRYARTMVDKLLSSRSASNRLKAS

These compounds were tested against Serine/threonine-protein kinase PLK1 (Homo sapiens) (UniProt P53350) (assay: human PLK1 kinase inhibitors, primary screen, biochemical, TR-FRET (AID 619;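 note: 0% = DMSO max control and 100% = H-89 dihydrochloride min control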)). Settings: recombinant PLK1 kinase, TR-FRET peptide phosphorylation; at 10 µM; stronger effect = higher value.

For `COc1ccccc1OP(C)(=O)Nc1c(C)cccc1C` (stereo not given), which inhibition is on record?
The inhibition was inactive: -2.36%.

`Cc1nc2ccc3ccccc3c2s1.O=[N+]([O-])c1cc([N+](=O)[O-])c(O)c([N+](=O)[O-])c1` was tested. Which inhibition did it give?
Its inhibition is inactive: -2.41%.

With `Cc1ccc(C)c(NP(C)(=O)Oc2ccccc2)c1` (stereo not given) as the compound, how does the inhibition read?
The inhibition was inactive: 1.33%.

For `Cc1cc(C)cc(OP(C)(=O)Nc2ccccn2)c1` (stereo not given), which inhibition is on record?
Its inhibition is inactive: -0.37%.

`Cc1cc(C)cc(OP(C)(=O)Nc2ccc(C)cc2C)c1` (stereo not given) was tested. Which inhibition did it give?
Its inhibition is inactive: 0.67%.

With `COc1ccc(OP(C)(=O)Nc2cccc(F)c2)cc1` (stereo not given) as the compound, how does the inhibition read?
The inhibition was inactive: -6.41%.

Which inhibition does the source give for `CP(=O)(Nc1ccccn1)Oc1ccc(Cl)cc1` (stereo not given) here?
Its inhibition is inactive: -8.05%.

With `CP(=O)(NC(=O)Nc1ccccc1)Oc1ccccc1` (stereo not given) as the compound, how does the inhibition read?
Its inhibition is inactive: -16.3%.

How did the inhibition turn out when `CP(=S)(Nn1cnnc1)Oc1ccccc1` (stereo not given) was run?
The inhibition was inactive: -14%.

How did the inhibition turn out when `CP(=O)(OC12CC3CC(CC(C3)C1)C2)OC12CC3CC(CC(C3)C1)C2` was run?
The inhibition was inactive: -12.6%.

With `CC(C)(C)c1ccc(OP(C)(=O)O)cc1` as the compound, how does the inhibition read?
Its inhibition is inactive: -5.11%.

Which inhibition does the source give for `CP(=O)(Nc1ccc(Cl)cc1)Oc1ccc(F)cc1` (stereo not given) here?
Its inhibition is inactive: -9.79%.

For `COc1ccccc1OP(C)(=O)Nc1c(C)n(C)n(-c2ccccc2)c1=O` (stereo not given), which inhibition is on record?
The inhibition was inactive: -18.1%.

With `CP(=O)(Oc1ccccc1)N1CCOC1=O` (stereo not given) as the compound, how does the inhibition read?
The inhibition was inactive: -12.7%.

`CCN(CC)CC(O)COC(=O)C(O)(c1ccccc1)C1CCCCC1` (stereo not given) was tested. Which inhibition did it give?
Its inhibition is inactive: -2.15%.

How did the inhibition turn out when `CP(=O)(Nc1ccccn1)Oc1ccccc1` (stereo not given) was run?
The inhibition was inactive: -7.61%.

How did the inhibition turn out when `COc1ccccc1OP(C)(=O)Nc1ccc(C)cc1C` (stereo not given) was run?
The inhibition was inactive: -16.1%.

How did the inhibition turn out when `CCc1ccc(OP(C)(=O)O)cc1` was run?
The inhibition was inactive: -3.97%.

Which inhibition does the source give for `Cc1c(NP(C)(=O)Oc2ccc(C(C)C)cc2)c(=O)n(-c2ccccc2)n1C` (stereo not given) here?
Its inhibition is inactive: -0.15%.

With `COc1ccc(OP(C)(=O)Nc2ccccn2)cc1` (stereo not given) as the compound, how does the inhibition read?
Its inhibition is inactive: 0.43%.

For `CN(C)CCOC(=O)C(O)(c1ccccc1)C1CCCC1` (stereo not given), which inhibition is on record?
The inhibition was inactive: -9.67%.

Which inhibition does the source give for `Cc1nc2ccc3ccccc3c2o1.O=[N+]([O-])c1cc([N+](=O)[O-])c(O)c([N+](=O)[O-])c1` here?
Its inhibition is inactive: -7.98%.

For `COc1ccccc1OP(C)(=O)Nc1ccc(C)c(C)c1` (stereo not given), which inhibition is on record?
The inhibition was inactive: -9.94%.

Which inhibition does the source give for `CP(=O)(Nc1ccccc1)Oc1ccc(F)cc1` (stereo not given) here?
Its inhibition is inactive: -11.9%.

For `CCN(CC)CCCOC(=O)C(O)(c1ccccc1)C1CCCCC1` (stereo not given), which inhibition is on record?
Its inhibition is inactive: -13.3%.

For `CP(=O)(Nc1ccccc1F)Oc1ccccc1` (stereo not given), which inhibition is on record?
The inhibition was inactive: -0.93%.

For `CP(=O)(Nc1ccc2c(c1)OCCO2)Oc1ccccc1` (stereo not given), which inhibition is on record?
The inhibition was inactive: -4%.

`CCOP(C)(=S)SCC(=O)NC(C)(CC)C(=O)O` (stereo not given) was tested. Which inhibition did it give?
The inhibition was inactive: -8.41%.

Which inhibition does the source give for `CN(C)CCOC(=O)C(O)(c1ccccc1)C1CCCCC1` (stereo not given) here?
The inhibition was inactive: -13.1%.

Which inhibition does the source give for `COc1ccc(OP(C)(=O)Nc2cccc(Br)c2)cc1` (stereo not given) here?
The inhibition was inactive: -8.56%.
